From PubChem BioAssay AID485314 (National Center for Advancing Translational Sciences (NCATS), 2010)
Where “and” joins values, the source holds several entries; their conditions need not be identical. Identical values can stand only once. Only a part is listed here, and it is no random draw. Some tests of the compounds listed are not included; inactive here does not mean inactive elsewhere. Inconclusive results are not listed. Calls of active or inactive are those of the source. Calls follow the shape of the dose curve; as a rule, active = well fitted inhibition curve with a large enough effect; inconclusive = small, poorly fitted or top-dose-only effect, or another doubt; inactive = no such curve, though single readings can be large or run the other way.

target: DNA polymerase beta (Homo sapiens) (UniProt P06746); test: qHTS Assay for Inhibitors of DNA Polymerase Beta; details: Pol beta primer extension/strand displacement, fluorescence kinetic; at 114 µM (top of the series)
From the text: The base excision repair system in human cells is a target for therapeutic modulation of the response to irradiation treatment and DNA-damaging drugs. A key enzyme in this system is the bi-functional DNA polymerase known as DNA polymerase Beta (Pol Beta). The following is a homogeneous kinetic assay to study the primer extension and strand-displacement reaction catalyzed by pol beta.
A stepwise description of the 1536-well assay is shown in next Table. Three microliters of reagents (buffer in column 3 and 4 as negative control and 10 nM Pol beta in columns 1, 2, and 5-48) was dispensed into 1,536-well black solid-bottomed plate. Compounds (23 nL) were transferred via Kalypsys pin tool equipped with 1536-pin array (10 nL slotted pins, V&P Scientific, San Diego, CA). The plates were incubated for 15 min at room temperature, and 1 uL substrate (50 nM final concentration) were added to start the reaction and immediately read at 0 min read on Viewlux reader. The plate were further incubated for 10 min at room temperature, and then read on Viewlux again. Throughout the screen, reagent bottle and all liquid lines were chilled and made light-tight to minimize reagent degradation. All screening operations were performed on a fully integrated robotic system (Kalypsys, San Diego, CA) containing one RX-130 and two RX-90 anthropomorphic robotic arms (Staubli, Duncan, SC). Library plates were screened starting from the lowest and proceeding to the highest concentration, and a double-dipping step of the highest concentration was required to access higher concentrations of compounds. Vehicle-only plates, with DMSO being pin-transferred to the entire column 5-48 compound area, were inserted uniformly at the beginning and the end of each library in order to monitor for and record any shifts in the background, which can be affected by reagent dispensers or loss in enzyme activity overtime. Screening data were corrected, normalized, and concentration-effect relationships were derived by using publicly-available curve fitting algorithms developed in-house (http://ncgc.nih.gov/pub/openhts). A four parameter Hill equation was fitted to the concentration-response data by minimizing the residual error between the modeled and observed responses.
% is scaled to controls: 0 for no effect and ±100 for the full control effect.

Row | Structure (SMILES) | activity change, negative = inhibition
1 | CN(C)C1(CNC(=O)c2ccc(Br)cc2)CCCCC1 | inactive: -0.292%
2 | COc1cc(C(=O)NCC2(N(C)C)CCCCC2)c([N+](=O)[O-])cc1OC | inactive: -3.67%
3 | COc1ccc(Cl)cc1C(=O)NCC1(N(C)C)CCCCC1 | inactive: -14.3%
4 | COc1cccc(C(=O)NCC2(N3CCCCC3)CCCCC2)c1 | inactive: 1.18%
5 | COc1ccc(C(=O)NCC2(N(C)C)CCCCC2)cc1Cl | inactive: 15.3%
6 | O=C(NCC1(N2CCCCC2)CCCCC1)c1cccc(Cl)c1 | inactive: 47.4%
7 | COc1cccc(C(=O)NCC2(N3CCOCC3)CCCCC2)c1 | inactive: -17.8%
8 | O=C(OC1CN2CCC1CC2)C(CO)(c1ccccc1)c1ccccc1 (centres undefined) | inactive: 0.555%
9 | CC(C)COc1ccc(C(=O)NCC2(N(C)C)CCCCC2)cc1 | inactive: -10.9%
10 | COc1ccc(Br)c(C(=O)NCC2(N3CCCCC3)CCCCC2)c1 | inactive: -0.277%
11 | COc1cc(C(=O)NCC2(N(C)C)CCCCC2)cc(OC)c1OC | inactive: -27.6%
12 | Cc1cccc(C(=O)NCC2(N(C)C)CCCCC2)c1 | inactive: -13.9%
13 | CC(C)Oc1ccc(C(=O)NCC2(N(C)C)CCCCC2)cc1 | inactive: -19% and inactive: 10.7%
14 | CN(C)c1cccc(C(=O)NCC2(N(C)C)CCCCC2)c1 | inactive: -7.09%
15 | O=C(NCC1(N2CCCCC2)CCCCC1)c1cc([N+](=O)[O-])ccc1Cl | inactive: 2.66%
16 | CN1[C@@H]2CC[C@H]1CC(OC(=O)C(O)(c1ccccc1)c1ccccc1)C2 (some centres undefined) | inactive: 13.3%
17 | COc1cc(SC)ccc1C(=O)NCC1(N(C)C)CCCCC1 | inactive: -5.53%

Row | Structure (SMILES) | activity change, negative = inhibition
18 | CN(C)C1(CNC(=O)c2cccc(Cl)c2)CCCCC1 | inactive: -18.1%
19 | CCN(CC)CC(C)C(C)OC(=O)C(O)(c1ccccc1)c1ccccc1 (centres undefined) | inactive: 27.7%
20 | CC(C)N1C(=O)CC2(CCN(CCOC(=O)C(O)(c3ccccc3)c3ccccc3)CC2)C1=O | inactive: 9.39%
21 | Cc1ccc(C(=O)NCC2(N3CCCCC3)CCCCC2)cc1 | inactive: -1.13%
22 | CN(C)C1(CNC(=O)c2ccccc2F)CCCCC1 | inactive: -0.33%
23 | CN(C)C1CCCC1OC(=O)C(O)(c1ccccc1)c1ccccc1 (centres undefined) | inactive: -1.41%
24 | CN(C)c1ccc(C(=O)NCC2(N(C)C)CCCCC2)cc1 | inactive: -20.2%
25 | CN(C)C1(CNC(=O)c2ccccc2[N+](=O)[O-])CCCCC1 | inactive: 5.8%
26 | Cc1ccccc1C(=O)NCC1(N2CCCCC2)CCCCC1 | inactive: 2.55%
27 | CCCCOc1ccccc1C(=O)NCC1(N(C)C)CCCCC1 | inactive: 4.78%
28 | O=C(NCC1(N2CCCCC2)CCCCC1)c1cc(F)c(F)cc1Cl | inactive: 16.1%
29 | C=CCN1CCN(CCOC(=O)C(O)(c2ccccc2)c2ccccc2)CC1 | inactive: 0.656%
30 | CCOc1cccc(C(=O)NCC2(N(C)C)CCCCC2)c1 | inactive: -27.1%
31 | COc1ccc(C(=O)NCC2(N(C)C)CCCCC2)cc1 | inactive: 6.8%
32 | O=C(NCC1(N2CCCCC2)CCCCC1)c1cccc(Br)c1 | inactive: 38.9%
33 | Cc1cc(C(=O)NCC2(N3CCCCC3)CCCCC2)ccc1[N+](=O)[O-] | inactive: 17.9%
34 | CCN1CCCC(OC(=O)C2(O)c3ccccc3C=Cc3ccccc32)C1 (centres undefined) | inactive: 25.6%
